Assays:
rat brain VMAT2 = target: T1, rat brain VMAT2 (Rattus norvegicus, UniProt Q01827); assay: VMAT2 binding assay (inhibition of [3H]HTBZ binding)
T1 construct: the whole rat brain (excluding the cerebellum) or striatal were homogenized; tissue Eurofins Panlabs (assay performed by); host or cells: rat brain (without cerebellum) or striatum, synaptic vesicle suspension

Sequences of proteins named here, by UniProt entry; tags and fusion partners are left off.
UniProt Q01827, whole entry: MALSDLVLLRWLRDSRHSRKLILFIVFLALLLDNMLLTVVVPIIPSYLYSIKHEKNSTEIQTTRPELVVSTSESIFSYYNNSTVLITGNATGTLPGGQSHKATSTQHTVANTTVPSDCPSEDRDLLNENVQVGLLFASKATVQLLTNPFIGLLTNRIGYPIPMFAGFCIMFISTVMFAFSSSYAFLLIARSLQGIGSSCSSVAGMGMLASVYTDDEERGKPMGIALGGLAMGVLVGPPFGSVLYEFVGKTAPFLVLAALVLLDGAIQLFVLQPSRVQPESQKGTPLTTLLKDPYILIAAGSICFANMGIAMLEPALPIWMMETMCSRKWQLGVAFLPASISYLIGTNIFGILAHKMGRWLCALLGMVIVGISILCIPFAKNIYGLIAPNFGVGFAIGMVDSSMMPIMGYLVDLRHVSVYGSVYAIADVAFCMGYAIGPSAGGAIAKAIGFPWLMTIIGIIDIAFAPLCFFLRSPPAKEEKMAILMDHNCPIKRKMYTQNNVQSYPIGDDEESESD

rat VMAT2 = target: T2, rat VMAT2 (Rattus norvegicus, UniProt Q01827); assay: [3H]DA uptake assay in rat striatal synaptosomes; type: biochemical
T2 construct: in vitro [^3H]DA uptake assay in rat striatal synaptosomes; from tissue; host or cells: rat striatal synaptosomes / vesicular suspension
Procedure: [^3H]DA (dihydroxyphenylethyethylamine, 3,4-[ring-2,5,6-^3H]; specific activity, 28.0 Ci/mmol) was purchased from Perkin Elmer. […] After drying, the filter plate was sealed with unifilter-96 back sealing tape and added 50 μl of microscint-20 (Perkin Elmer), then sealed the top of the filter plate with TopSeal-A. The radioactivity was measured by a TopCount scintillation counter. GraphPad Prism 5.0 was used to analyze data.

## COc1cc2c(cc1OC)C1CC(=O)C(CC(C)C)CN1CC2 (stereo not drawn) [TBZ, tetrabenazine, reference compound]
Rat brain VMAT2
  IC50: 23 nM
  Ki: 13.5 nM
Rat VMAT2
  IC50: 7.17 nM

Reference: paper PMC8689140 (Frontiers in Pharmacology, 2021)
